Measured values as given in patent publication US8959984B2, “Proteome-wide quantification of small molecule binding to cellular target proteins” (priority 2007, dated 2015).

The chains behind the UniProt entries cited, without tags or fusion partners. Where a name states a change or a piece, a line headed by the entry shows the natural chain unless it says otherwise. Residues count along the entry.
UniProt P20248, whole entry: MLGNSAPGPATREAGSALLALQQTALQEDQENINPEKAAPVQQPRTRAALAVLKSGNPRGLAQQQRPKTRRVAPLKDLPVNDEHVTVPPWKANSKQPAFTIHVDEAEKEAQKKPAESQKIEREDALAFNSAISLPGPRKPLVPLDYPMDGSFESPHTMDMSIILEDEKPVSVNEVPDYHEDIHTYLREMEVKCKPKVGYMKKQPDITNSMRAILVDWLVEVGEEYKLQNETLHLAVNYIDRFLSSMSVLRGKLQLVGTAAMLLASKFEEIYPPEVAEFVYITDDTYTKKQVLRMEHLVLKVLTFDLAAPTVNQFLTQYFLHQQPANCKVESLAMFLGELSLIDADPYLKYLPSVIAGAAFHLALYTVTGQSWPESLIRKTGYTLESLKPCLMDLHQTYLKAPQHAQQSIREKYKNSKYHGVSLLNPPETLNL
UniProt P29317, 24-976: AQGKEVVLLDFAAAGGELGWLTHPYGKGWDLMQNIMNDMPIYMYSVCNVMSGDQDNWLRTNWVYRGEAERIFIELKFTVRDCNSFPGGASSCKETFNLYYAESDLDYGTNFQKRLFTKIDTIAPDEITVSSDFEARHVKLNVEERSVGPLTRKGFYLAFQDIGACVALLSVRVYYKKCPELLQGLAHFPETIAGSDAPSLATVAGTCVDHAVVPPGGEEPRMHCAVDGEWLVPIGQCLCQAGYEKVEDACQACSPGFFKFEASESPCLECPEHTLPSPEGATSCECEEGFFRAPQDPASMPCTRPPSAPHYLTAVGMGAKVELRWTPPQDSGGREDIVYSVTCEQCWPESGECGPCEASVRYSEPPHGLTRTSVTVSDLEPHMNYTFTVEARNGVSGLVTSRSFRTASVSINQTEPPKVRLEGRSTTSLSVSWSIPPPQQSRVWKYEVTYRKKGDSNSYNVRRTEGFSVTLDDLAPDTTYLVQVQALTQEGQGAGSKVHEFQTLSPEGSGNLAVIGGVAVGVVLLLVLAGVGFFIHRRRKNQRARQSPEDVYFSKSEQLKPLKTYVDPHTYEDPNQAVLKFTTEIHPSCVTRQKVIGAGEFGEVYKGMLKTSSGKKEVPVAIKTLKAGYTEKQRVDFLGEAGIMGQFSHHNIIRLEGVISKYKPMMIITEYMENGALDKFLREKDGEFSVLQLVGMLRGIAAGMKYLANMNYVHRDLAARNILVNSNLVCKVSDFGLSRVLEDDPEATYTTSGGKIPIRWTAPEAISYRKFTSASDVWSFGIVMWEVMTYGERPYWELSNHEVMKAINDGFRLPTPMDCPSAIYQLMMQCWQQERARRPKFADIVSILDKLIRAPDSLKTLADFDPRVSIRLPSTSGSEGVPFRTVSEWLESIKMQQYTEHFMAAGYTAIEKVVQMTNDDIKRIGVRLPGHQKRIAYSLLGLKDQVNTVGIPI
UniProt P32320: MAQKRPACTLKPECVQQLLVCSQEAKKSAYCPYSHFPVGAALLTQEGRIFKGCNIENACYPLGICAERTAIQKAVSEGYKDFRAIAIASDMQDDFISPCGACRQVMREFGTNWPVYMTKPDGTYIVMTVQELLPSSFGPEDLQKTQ
UniProt P45983: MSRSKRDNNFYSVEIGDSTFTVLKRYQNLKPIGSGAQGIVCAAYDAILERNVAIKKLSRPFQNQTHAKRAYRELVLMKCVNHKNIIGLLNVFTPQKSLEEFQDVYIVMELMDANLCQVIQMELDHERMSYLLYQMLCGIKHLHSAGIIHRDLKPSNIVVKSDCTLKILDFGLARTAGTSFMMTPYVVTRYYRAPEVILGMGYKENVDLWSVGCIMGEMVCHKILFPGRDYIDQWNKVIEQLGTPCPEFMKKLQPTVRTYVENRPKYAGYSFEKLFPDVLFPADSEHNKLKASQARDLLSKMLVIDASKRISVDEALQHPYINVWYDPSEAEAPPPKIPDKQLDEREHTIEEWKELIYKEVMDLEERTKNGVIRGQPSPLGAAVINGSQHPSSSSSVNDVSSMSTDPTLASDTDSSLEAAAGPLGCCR

How the values were obtained:
Experiment in all cases: Ki determination for immobilized VI16742: two consecutive incubations, control beads, ligand concentration and incubation time controls (Tables 7, 8)
Format in all cases: binding
[1] = target: T1, cellular target proteins in HeLa cell lysate (Homo sapiens, UniProt O00764); details: Ki (VI16742), PDXK IPI00013004
T1 sequence (O00764 1-312): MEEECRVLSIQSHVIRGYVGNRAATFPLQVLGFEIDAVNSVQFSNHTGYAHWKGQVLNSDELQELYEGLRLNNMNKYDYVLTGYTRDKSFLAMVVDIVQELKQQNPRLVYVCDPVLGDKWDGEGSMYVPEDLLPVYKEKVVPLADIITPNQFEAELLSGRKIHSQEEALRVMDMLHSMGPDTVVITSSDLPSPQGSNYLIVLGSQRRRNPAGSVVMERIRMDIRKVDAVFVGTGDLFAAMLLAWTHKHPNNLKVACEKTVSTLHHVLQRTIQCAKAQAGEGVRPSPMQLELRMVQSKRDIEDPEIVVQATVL

[2] = target: T2, cellular target proteins in HeLa cell lysate (Homo sapiens, UniProt O43427); details: Ki (VI16742), FIBP IPI00012443
T2 sequence (O43427 1-364): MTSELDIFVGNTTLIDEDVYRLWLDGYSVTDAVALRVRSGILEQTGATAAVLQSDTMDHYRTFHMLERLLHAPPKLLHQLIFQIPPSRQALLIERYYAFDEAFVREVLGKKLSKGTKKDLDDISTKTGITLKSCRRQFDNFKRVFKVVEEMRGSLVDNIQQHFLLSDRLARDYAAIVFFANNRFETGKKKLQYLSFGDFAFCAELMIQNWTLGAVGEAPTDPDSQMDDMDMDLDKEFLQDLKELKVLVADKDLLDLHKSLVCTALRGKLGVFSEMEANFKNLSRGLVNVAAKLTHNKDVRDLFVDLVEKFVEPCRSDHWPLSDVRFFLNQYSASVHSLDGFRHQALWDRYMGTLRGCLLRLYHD

[3] = target: cellular target proteins in HeLa cell lysate (Homo sapiens, UniProt P20248); details: Ki (VI16742), CCNA2 IPI00022865
[4] = target: cellular target proteins in HeLa cell lysate (Homo sapiens, UniProt P29317); details: Ki (VI16742), EphA2 (EPHA2) IPI00021267
[5] = target: cellular target proteins in HeLa cell lysate (Homo sapiens, UniProt P32320); details: Ki (VI16742), CDA IPI00027983
[6] = target: cellular target proteins in HeLa cell lysate (Homo sapiens, UniProt P45983); details: Ki (VI16742), JNK1 (MAPK8) IPI00220305
[7] = target: T3, cellular target proteins in HeLa cell lysate (Homo sapiens, UniProt P62258); details: Ki (VI16742), YWHAE IPI00000816
T3 sequence (P62258 1-255): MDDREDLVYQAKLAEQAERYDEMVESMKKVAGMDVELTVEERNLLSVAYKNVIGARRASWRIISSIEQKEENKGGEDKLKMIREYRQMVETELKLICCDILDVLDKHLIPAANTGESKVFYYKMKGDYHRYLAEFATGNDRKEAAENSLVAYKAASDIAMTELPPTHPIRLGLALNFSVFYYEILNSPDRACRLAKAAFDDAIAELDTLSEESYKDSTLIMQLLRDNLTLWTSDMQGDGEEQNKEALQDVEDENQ

[8] = target: T4, cellular target proteins in HeLa cell lysate (Homo sapiens, UniProt Q13163); details: Ki (VI16742), MAP2K5 IPI00185860
T4 sequence (Q13163 1-448): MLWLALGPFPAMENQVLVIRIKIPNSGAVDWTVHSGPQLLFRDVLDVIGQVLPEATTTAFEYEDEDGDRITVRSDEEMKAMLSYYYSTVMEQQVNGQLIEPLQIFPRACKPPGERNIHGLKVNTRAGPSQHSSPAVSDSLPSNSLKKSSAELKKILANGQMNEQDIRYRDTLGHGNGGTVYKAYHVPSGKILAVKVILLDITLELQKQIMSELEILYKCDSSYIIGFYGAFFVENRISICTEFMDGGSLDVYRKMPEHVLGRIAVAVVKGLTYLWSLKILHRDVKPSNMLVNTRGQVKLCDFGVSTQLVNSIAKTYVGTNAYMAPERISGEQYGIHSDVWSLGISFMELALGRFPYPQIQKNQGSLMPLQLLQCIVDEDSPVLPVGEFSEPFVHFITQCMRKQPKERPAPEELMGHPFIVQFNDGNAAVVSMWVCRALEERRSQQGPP

CC(C)n1c(=O)ccc2cnc(Nc3ccc(OCCN)cc3)nc21 [V16742]
Ki [1]: 4.65 µM
Ki [2]: 27.9 µM
Ki [3]: 11.8 µM
Ki [4]: 54 µM
Ki [5]: 12.7 µM
Ki [6]: 3.01 µM
Ki [7]: 28.2 µM
Ki [8]: 17.6 µM
